pIC50: −log10 of the molar value.
Target: T1, human neutrophil elastase (HNE) (Homo sapiens, UniProt P08246)
T1 sequence (P08246 30-247): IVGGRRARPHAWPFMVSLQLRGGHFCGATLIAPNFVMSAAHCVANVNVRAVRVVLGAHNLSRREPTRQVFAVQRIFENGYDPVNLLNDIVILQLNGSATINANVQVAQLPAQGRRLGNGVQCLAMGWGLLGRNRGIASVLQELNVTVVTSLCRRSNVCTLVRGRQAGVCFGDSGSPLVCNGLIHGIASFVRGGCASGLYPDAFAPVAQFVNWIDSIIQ
Assay: HNE enzymatic activity assay, chromogenic p-NA substrate, absorbance at […] nm
Format: biochemical
Design: gene ELANE

- pIC50: 5.44
Compound: CC(C)(C)C(=O)Oc1ccc(S(=O)(=O)Nc2ccccc2C(=O)NCC(=O)O)cc1 [sivelestat sodium]

From paper PMC4503950, “EGCG reverses human neutrophil elastase-induced migration in A549 cells by directly binding to HNE and by regulating α1-AT” (Scientific Reports, 2015)
